One data set deals with porcine model. The conditions noted are these: pig, in vivo. The procedure: Animals tested were of the porcine species from the breed Yorkshire Cross. The animals underwent surgery to place two (2) CVL catheters, 1 for infusion and 1 for plasma collection. Each animal received ˜1 L of lavage solution. The animals were allowed to recover and stabilize. Once the animals were awake and mobile, the animals were infused with 50 mcg/mL for 30 minutes.

The nature of data set [1]: Plasma concentration of diclofenac after local lavage delivery to the lungs in a porcine model (LC/MS). The conditions noted are these: local vs systemic administration. Type of data set: in vivo, porcine (Yorkshire Cross). The procedure:
Studies were performed using a porcine model to study the distribution of diclofenac in the system when administered locally (via direct administration to the lungs). The purpose of the study was to determine the systemic concentration of diclofenac after a maximal 30 minute local lavage, taking samples at specific time points for up to 30 minutes. […] Each animal received ˜1 L of lavage solution. The animals were allowed to recover and stabilize. […] For all concentration measurements herein, the sample extracts were analyzed for diclofenac by liquid chromatography/mass spectrometry (LC/MS). Spectra were compared to the validated protocol and standard curve generated for the study.

Consider `C[C@@H]1C[C@H]2[C@@H]3CCC4=CC(=O)C=C[C@]4(C)[C@@]3(F)[C@@H](O)C[C@]2(C)[C@@]1(O)C(=O)COP(=O)([O-])[O-].[Na+].[Na+]` [Dexamethasone sodium phosphate, disodium; [2-[(8S,9R,10S,11S,13S,14S,16R, 17R)-9-fluoro-11,17-dihydroxy-10,13,16-trimethyl-3-oxo-6,7,8, 11, 12, 14, 15, 16-octahydrocyclopenta[a]phenanthren-17-yl]-2-oxoethyl] phosphate], for which, in the data set with porcine model, the adverse events entry was “did not have any adverse events”, the clinical observations entry is on record as “no abnormal clinical observations” and the lung tissue damage entry is “no signs of lung tissue damage”.
For `O=C(O)Cc1ccccc1Nc1c(Cl)cccc1Cl` [Diclofenac, 2-[2-(2,6-dichloroanilino)phenyl]acetic acid], in data set [1], the “fold lower plasma Cmax than with systemic administration” value is listed as “more than 2000 fold”. In addition, in the data set with porcine model, the “systemic effects of local delivery” value is recorded as “did not result in significant systemic effects”.

Values taken from patent US20240399118A1, “INTRALUMINAL LOCAL DRUG DELIVERY” (Isola Therapeutics, Inc., priority 2023, published 2024).
